# Values quoted from earlier work, collected in patent US20260285868A1, “IMIDAZOTRIAZINE DERIVATIVES AS IL-17 MODULATORS” (UCB BIOPHARMA SRL, priority 2023, published 2026).
# The chains behind the UniProt entries cited, without tags or fusion partners. Residues count along the entry.
# UniProt Q16552, 24-155 limits assumed: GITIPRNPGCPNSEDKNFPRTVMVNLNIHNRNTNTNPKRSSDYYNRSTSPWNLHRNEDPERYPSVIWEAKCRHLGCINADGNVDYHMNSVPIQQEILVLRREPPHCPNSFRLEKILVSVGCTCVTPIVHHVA
# Molecular target: IL-17A (Homo sapiens, UniProt Q16552)
# Settings: comparative data; values as stated in WO 2023/275301; cited from earlier work
structure (smiles),measurement,value
"Cn1nccc1C(=O)N[C@H](c1cn2ncc([C@H]3C[C@](O)(C(F)F)CCN3C(=O)[C@@H]3CCC(F)(F)CO3)nc2n1)C1CCC(F)(F)CC1 (single isomer, unassigned)",pIC50,6.2
